Target: Carboxylic ester hydrolase (Equus caballus, UniProt Q9N1N9)
Assay: AChE and BChE Inhibition Assay
Conditions: pH 8
Procedure: In vitro AChEI activity was performed based on the modified Ellman's methodas previously reported by our group using a 96-well plate reader (BioTek ELx808). […] Each well contained 50 uL potassium phosphate buffer (KH2PO4/K2HPO4, 0.1 M, pH 8), 25 uL prepared sample as described above, 25 uL enzyme with final concentration of 0.22 U/mL in buffer. They were preincubated for 15 min at rt, and then 125 uL DTNB (3 mM in buffer) was added. […] The IC50 values were determined graphically from inhibition curves (log inhibitor concentration vs. percent of inhibition).

Protein sequences, listed by entry. Tags and fused reporters are not part of them.
UniProt Q9N1N9, whole entry: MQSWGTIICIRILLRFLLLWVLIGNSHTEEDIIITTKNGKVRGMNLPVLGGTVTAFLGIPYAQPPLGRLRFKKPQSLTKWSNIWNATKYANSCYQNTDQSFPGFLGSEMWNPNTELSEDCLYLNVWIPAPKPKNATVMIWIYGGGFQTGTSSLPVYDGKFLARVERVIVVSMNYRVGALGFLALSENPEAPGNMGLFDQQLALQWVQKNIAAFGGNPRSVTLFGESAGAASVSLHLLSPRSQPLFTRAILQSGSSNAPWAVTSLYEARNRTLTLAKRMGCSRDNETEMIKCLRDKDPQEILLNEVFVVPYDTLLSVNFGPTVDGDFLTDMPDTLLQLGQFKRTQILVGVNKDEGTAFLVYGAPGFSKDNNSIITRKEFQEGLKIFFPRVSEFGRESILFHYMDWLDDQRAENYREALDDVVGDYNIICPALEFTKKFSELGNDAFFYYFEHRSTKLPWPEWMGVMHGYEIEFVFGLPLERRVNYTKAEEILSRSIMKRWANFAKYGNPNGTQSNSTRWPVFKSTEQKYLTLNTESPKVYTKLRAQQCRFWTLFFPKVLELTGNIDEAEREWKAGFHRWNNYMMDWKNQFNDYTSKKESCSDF

CCN(C)C(=O)Oc1cccc([C@H](C)N(C)C)c1 [3-[(1S)-1-(dimethylamino)ethyl]phenyl N-ethyl-N-methylcarbamate]
IC50: 7.72 µM
